Assay results as given in patent US20170319643A1.

Biological target: neutrophil elastase
Assay: cell-based or functional assay

alpha-1-antitrypsin bound to reconstituted HDL (from UniProt P01009 25-418; P02647 25-267)
elastase inhibitor capacity (fluorometric elastase activity assay), compared with free A1AT: 5 fold
